From patent US20070282095

Tests used:
[1] = target: blood coagulation factor 8 (UniProt P00451)
[2] = target: blood coagulation factor 13 (Fibrogammin P) (UniProt P00488)

Substance	APTT of standard plasma, 50 µg/ml derivative [1]	also measured
203A205G thrombin (glycine at position 203 in B chain substituted by alanine, serine at position 205 substituted by glycine)	in the 203A205G thrombin it took 48 seconds, which was prolonged by 1.09 folds	
205A thrombin (serine at position 205 in B chain substituted by alanine)	the APTT of the control was 41 seconds while the APTT of the 205A thrombin was 62 seconds	
203A205A thrombin (glycine 203 to alanine, serine 205 to alanine in B chain)		APTT of standard plasma, 100 µg/ml derivative [1]: the APTT of the control was 55 seconds while the APTT of the 203A205A thrombin was 59 seconds
77E203A205G thrombin (lysine 77 to glutamic acid, glycine 203 to alanine, serine 205 to glycine in B chain)	the APTT of the 77E203A205G thrombin was 74 seconds, which showed that APTT was prolonged by 1.68 folds	
205A43A thrombin (serine 205 to alanine, histidine 43 to alanine in B chain)	the APTT of the 205A43A thrombin was 78 seconds, which prolonged the APTT to 1.7 folds	
205G thrombin (serine at position 205 in B chain substituted by glycine)		cleavage of FXIII A chain, SDS-PAGE (method B), 37°C 3 hours [2]: A band of FXIII which had been cleaved by about 50% was detected
